{"source": "patent US7968543B2", "about": "(priority 2007, dated 2011)", "test_system": "FLT3 phosphorylation in FLT3-ITD cell lines", "assay": "Ex vivo plasma inhibitory activity, FLT3-ITD cell lines", "settings": "plasma of study patients, 12 mg dose"}
{"smiles": "CC(C)(C)c1cc(NC(=O)Nc2ccc(-c3cn4c(n3)sc3cc(OCCN5CCOCC5)ccc34)cc2)no1", "note": "[N-(5-tert-butyl-isoxazol-3-yl)-N′-{4-[7-(2-morpholin-4-yl-ethoxy)imidazo[2,1-b][1,3]benzothiazol-2-yl]phenyl}urea]", "values": [{"measurement": "FLT3 phosphorylation with patient plasma ex vivo", "value": "strongly suppressed"}]}
